From patent US10611795B2, “Methods for viral inactivation using eco-friendly detergents” (priority 2013, dated 2020)

Columns and labels:
[1] = EHS evaluation: basic physical and toxicological characteristics from manufacturer and government literature
[2] = cited from earlier work

## CCCCOP(=O)(OCCCC)OCCCC
[1]
  definitive chronic PNEC for freshwater: freshwater is 0.037 mg/L
  extrapolated marine PNEC: 0.0037 mg/L (uncertain)
[2]; 21-day study, Daphnia magna
  NOECs (chronic toxicity): NOECs: 0.87 mg/L (21-day
[2]; 95-day early life-stage study, fish
  NOEC (chronic toxicity): NOEC: 0.82 mg/L (95-day
[2]; Algae, biomass in Scenedesmus subspicatus
  NOEC (chronic toxicity): NOEC: 0.37 mg/L for Algae
[2]; Chlorella emersonii
  48-hr EC50: 48-hr EC50: 5-10 mg/L for
[2]; Japanese kill fish (Oryzias latipes)
  96-hr LC50: 96-hr LC50: 4.5 mg/L for
[2]; Zebra fish Brachydanio rerio, static test
  96-hr LC50: 96-hr LC50: 11.8 mg/L for
[2]; biomass in Scenedesmus subspicatus
  72-hr EC50: 72-hr EC50: 1.1 mg/L for
[2]
  Solubility in water (general characteristics): Slightly soluble in water
[2]; fathead minnow (Pimephales promelas), flow through test
  96-hr LC50: 96-hr LC50: 8.18 mg/L for
[2]; rainbow trout (Oncorhynchus mykiss), freshwater
  96-hr LC50: 96-hr LC50: 5 mg/L for

Read-outs that look alike come from different tables or passages of the source.
